System: proteins that co-immunoprecipitated with DUX4-CTD constructs expressed in MB135 myoblasts
Experiment: LC-MS of proteins co-immunoprecipitated with DUX4-CTD (Table 1) and western validation
Assay type: binding, human
Parameters: key to 3. + IFNg + Dox longCTD / 3. + Dox longCTD / 4. mL1dL2 + Dox + IFNG: peptide-spectrum matches (PSMs) per protein
Description: As an unbiased method to identify proteins that interact with the C-terminal region of DUX4, liquid chromatography mass spectroscopy (LC-MS) was used to identify proteins that co-immunoprecipitated with DUX4-CTD constructs expressed in MB135 myoblasts. In the first experiment, MB135iDUX4-CTD cells were used, either untreated, treated with doxycycline alone, or with both doxycycline and IFNG. In the second experiment, MB135iDUX4-CTD and MB135iDUX4mL1dL2 cells were used, both treated with doxycycline and IFNG, compared to these two cell lines untreated and combined as a control. Proteins with a minimum of 2 peptide spectrum matches (PSMs) in at least one sample that were identified in both experiments were assigned to one of ten categories (see Methods) to separate candidate interactors from other categories that might be co-purified because of obligate interactions (e.g., proteasome or ribosome) or might be less likely to be physiologically relevant (e.g., cytoskeletal proteins). Candidate interactors were then ranked based on the total PSMs for that protein across all samples.
Centrifugation at 2500 rcf at 4° C. for 5 min pelleted the nuclei, supernatant was discarded, and nuclei resuspended in 1 mL IP buffer pH 7.4 (25 mM Tris-HCl pH 7.5, 175 mM NaCl, 1 mM EDTA, 0.2% NP-40, 5% glycerol) and incubated for 1 hour at 4° C. with rotation then spun at 21000 rcf for 10 minutes at 4° C. to pellet insoluble debris. Protein concentration was determined using the Pierce BCA Protein Assay Kit (ThermoFisher, 23225). An equivalent amount of protein per sample was pre-cleared with Dynabeads Protein G (Invitrogen) bound to mouse IgG (Abcam #131368) for 1 hour at 4° C. with rotation. […]
For LC-MS, anti-FLAG immunoprecipitation was performed with beads cross-linked to the anti-FLAG antibody and the proteins competitively eluted with FLAG peptide. […] Proteomics data were analyzed using Proteome Discoverer 2.4 against a Uniprot human database that included common contaminants using Sequest HT and Percolator for scoring. […]

B1: Q14444 (protein, UniProt Q14444 1-709, looked up)
chain: MPSATSHSGSGSKSSGPPPPSGSSGSEAAAGAGAAAPASQHPATGTGAVQTEAMKQILGVIDKKLRNLEKKKGKLDDYQERMNKGERLNQDQLDAVSKYQEVTNNLEFAKELQRSFMALSQDIQKTIKKTARREQLMREEAEQKRLKTVLELQYVLDKLGDDEVRTDLKQGLNGVPILSEEELSLLDEFYKLVDPERDMSLRLNEQYEHASIHLWDLLEGKEKPVCGTTYKVLKEIVERVFQSNYFDSTHNHQNGLCEEEEAASAPAVEDQVPEAEPEPAEEYTEQSEVESTEYVNRQFMAETQFTSGEKEQVDEWTVETVEVVNSLQQQPQAASPSVPEPHSLTPVAQADPLVRRQRVQDLMAQMQGPYNFIQDSMLDFENQTLDPAIVSAQPMNPTQNMDMPQLVCPPVHSESRLAQPNQVPVQPEATQVPLVSSTSEGYTASQPLYQPSHATEQRPQKEPIDQIQATISLNTDQTTASSSLPAASQPQVFQAGTSKPLHSSGINVNAAPFQSMQTVFNMNAPVPPVNEPETLKQQNQYQASYNQSFSSQPHQVEQTELQQEQLQTVVGTYHGSPDQSHQVTGNHQQPPQQNTGFPRSNQPYYNSRGVSRGGSRGARGLMNGYRGPANGFRGGYDGYRPSFSNTPNSGYTQSQFSAPRDYSGYQRDGYQQNFKRGSGQSGPRGAPRGRGGPPRPNRGMPQMNTQQVN
modifications: full-length
- 3. + Dox longCTD (bait longCTD, experiment 3, Dox only): 5
- 3. + IFNg + Dox longCTD (bait longCTD, experiment 3, IFNg + Dox): 5
- SUM of PSMS (sum over all samples): 11
